From patent US5449676A, “Pyridazines” (priority 1991, dated 1995)

Amino acid sequences for entries named in this document (tags omitted). A change or cut given only in a name is not applied to a line headed by its entry.
UniProt Q14432: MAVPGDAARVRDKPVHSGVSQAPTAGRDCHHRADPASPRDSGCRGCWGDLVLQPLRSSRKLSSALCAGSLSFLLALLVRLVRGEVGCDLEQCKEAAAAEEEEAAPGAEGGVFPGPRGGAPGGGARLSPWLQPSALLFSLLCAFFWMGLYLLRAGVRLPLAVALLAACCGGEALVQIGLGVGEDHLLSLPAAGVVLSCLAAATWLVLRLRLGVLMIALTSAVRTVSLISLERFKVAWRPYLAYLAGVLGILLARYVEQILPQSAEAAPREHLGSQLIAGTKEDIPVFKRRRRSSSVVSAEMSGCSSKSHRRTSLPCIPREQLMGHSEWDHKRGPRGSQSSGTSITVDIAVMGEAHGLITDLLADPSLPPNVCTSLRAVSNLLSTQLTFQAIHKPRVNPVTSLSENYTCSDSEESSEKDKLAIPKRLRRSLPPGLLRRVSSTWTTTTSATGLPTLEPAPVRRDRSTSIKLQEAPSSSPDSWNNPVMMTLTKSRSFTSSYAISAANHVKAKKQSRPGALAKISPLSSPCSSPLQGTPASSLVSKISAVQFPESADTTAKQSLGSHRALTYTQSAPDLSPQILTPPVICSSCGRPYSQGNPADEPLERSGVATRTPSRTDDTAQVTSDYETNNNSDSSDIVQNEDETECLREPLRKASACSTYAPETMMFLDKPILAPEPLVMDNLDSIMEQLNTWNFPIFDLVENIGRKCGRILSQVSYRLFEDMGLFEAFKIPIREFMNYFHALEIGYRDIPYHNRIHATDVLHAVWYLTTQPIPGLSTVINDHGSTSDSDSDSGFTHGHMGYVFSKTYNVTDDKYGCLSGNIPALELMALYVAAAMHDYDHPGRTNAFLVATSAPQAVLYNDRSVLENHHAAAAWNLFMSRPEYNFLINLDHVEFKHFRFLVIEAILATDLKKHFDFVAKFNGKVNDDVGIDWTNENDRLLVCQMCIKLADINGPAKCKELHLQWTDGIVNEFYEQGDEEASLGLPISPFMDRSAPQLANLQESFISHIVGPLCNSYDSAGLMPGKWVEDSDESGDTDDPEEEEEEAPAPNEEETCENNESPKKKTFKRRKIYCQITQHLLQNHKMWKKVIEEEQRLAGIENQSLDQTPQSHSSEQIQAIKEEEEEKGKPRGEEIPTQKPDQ

Target: T1, PDE III (Homo sapiens, UniProt Q14432)
T1 construct: PDE III isolated from human platelets; from tissue; host or cells: human platelets
Experiment: inhibition of PDE III isolated from human platelets
Type: biochemical
From the text: The specific inhibition of phosphodiesterase IV (PDE IV=high-affinity cAMP-PDE which cannot be inhibited by cGMP, rolipram-sensitive) is regarded as particularly indicative of an expected bronchospasmolytic and/or antiinflammatory effect. The specificity of the inhibition is moreover described by the ratio [IC50 ]PDE-III /[IC50 ]PDE-IV (PDE III=high-affinity cAMP-PDE which can be inhibited by cGMP) [H. Hidaka et al., Adv. Cycl. Nucl. Res. 13, 145 (1984); TiPS 5, 237 (1984); R. Weishaar et al., J. Med. Chem. 28, (1985); S. A. Harrison et al., Molec. Pharmac. 29, 506 (1986); J. Klein-Tebbe et al., Allergologie 12, 12 (1989); C. Schudt et al., Allergologie 12, 12, (1989); C. Schudt et al., Agents and Action 1991 in press; C. D. Nicholson et al., TiPS 12, (1), 19 (1991)].
For this reason, the PDE inhibition by the compounds according to the invention was determined on a PDE III isolated from human platelets and on PDE IV isolated from human polymorphonuclear neutrophilic cells (PMNs) and from the dog trachea. Phosphodiesterases III and IV are isolated by chromatography as described by Polson et al., Biochem. Pharmacol. 31, 3403-3406 (1982).
The substances are dissolved and diluted further in DMSO. 2.1 μl samples from a series of solutions diluted up to 100 fold are mixed with 212 μl of reaction mixture. […]

Work on `Cn1c(=O)c2[nH]cnc2n(C)c1=O` [Theophylline, reference compound] yielded an IC50 of 151 µM.
